Drawing on PubChem BioAssay AID488840 (Broad Institute, 2010), this text covers activity change, negative = inhibition for 1 compound.

Amino acid sequences for entries named in this document (tags omitted). A change or cut given only in a name is not applied to a line headed by its entry.
UniProt O75164: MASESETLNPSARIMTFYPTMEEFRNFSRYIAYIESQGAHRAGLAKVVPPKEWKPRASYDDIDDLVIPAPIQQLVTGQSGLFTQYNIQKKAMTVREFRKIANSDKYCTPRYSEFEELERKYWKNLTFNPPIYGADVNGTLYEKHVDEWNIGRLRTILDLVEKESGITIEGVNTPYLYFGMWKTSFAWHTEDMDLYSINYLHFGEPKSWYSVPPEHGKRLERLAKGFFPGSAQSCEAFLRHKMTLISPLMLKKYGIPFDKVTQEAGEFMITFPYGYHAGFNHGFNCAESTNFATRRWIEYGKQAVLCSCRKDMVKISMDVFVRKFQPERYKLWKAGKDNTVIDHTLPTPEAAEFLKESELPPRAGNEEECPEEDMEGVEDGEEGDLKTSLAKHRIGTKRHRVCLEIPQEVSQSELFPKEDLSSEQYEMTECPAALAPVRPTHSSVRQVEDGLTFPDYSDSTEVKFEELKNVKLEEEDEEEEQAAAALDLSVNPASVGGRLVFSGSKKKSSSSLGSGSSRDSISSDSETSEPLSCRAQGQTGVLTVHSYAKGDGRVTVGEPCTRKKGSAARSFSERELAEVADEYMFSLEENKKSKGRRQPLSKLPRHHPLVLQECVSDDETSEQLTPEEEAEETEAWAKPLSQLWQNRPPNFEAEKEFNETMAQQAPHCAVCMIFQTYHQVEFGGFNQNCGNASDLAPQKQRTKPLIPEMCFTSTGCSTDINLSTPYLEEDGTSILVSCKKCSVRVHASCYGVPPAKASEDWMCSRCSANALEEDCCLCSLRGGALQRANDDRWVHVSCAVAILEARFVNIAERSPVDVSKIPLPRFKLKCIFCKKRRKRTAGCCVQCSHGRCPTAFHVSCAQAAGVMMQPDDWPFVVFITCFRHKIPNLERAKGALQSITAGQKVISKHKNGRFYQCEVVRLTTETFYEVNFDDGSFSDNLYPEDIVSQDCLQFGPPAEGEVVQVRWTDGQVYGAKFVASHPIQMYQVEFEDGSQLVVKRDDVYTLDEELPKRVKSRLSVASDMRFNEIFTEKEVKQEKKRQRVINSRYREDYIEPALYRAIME

This is a selection; strong and weak results do not stand in their true shares. Measured potencies and affinities stand elsewhere. Calls of active or inactive are those of the source.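 The calls were made as follows: active = half-maximal dose of signal decrease from fit no higher than ten times the top valid tested dose; inconclusive = fit invalid, or curve flat with 30 to 70% inhibition; inactive = the rest.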

In the experiment the target is Lysine-specific demethylase 4A (Homo sapiens) (UniProt O75164). As to the kind of experiment: JMJD2A histone demethylase inhibitors, dose response, selectivity assay for GASC-1 inhibitor project, biochemical, DELFIA europium, cherry-picked samples (AID 488840).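 Also: europium signal reports the dimethyl H3K9 product detected by antibody so inhibitors lower it; 0% = median of neutral control wells and -100% = median of positive control wells.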 To be noted: GST-JMJD2A(1-420) H3K9me3 demethylation; at 6 µM (top of the series).
Take `Cc1ccc(OCC(=O)OC2CN3CCC2CC3)cc1` (stereo unspecified): the activity change, negative = inhibition is inactive: -0.0755%.
